Results on one molecule are retold here after publication PMC2866048.

This assay deals with Rabbit skeletal actin, polymerised (F-actin) (rabbit), P68135. Description: co-sedimentation. To be noted: remark: other sources report otherwise.

B1: Drebrin construct 1-300, Q9QXS6 1-300 (domain or fragment)
chain: MAGVSFSGHRLELLAAYEEVIREESAADWALYTYEDGSDDLKLAASGEGGLQELSGHFENQKVMYGFCSVKDSQAALPKYVLINWVGEDVPDARKCACASHVAKVAEFFQGVDVIVNASSVEDIDAGAIGQRLSNGLARLSSPVLHRLRLREDENAEPVGTTYQKTDAAVEMKRINREQFWEQAKKEEELRKEEERKKALDARLRFEQERMEQERQEQEERERRYREREQQIEEHRRKQQSLEAEEAKRRLKEQSIFGDQRDEEEESQMKKSESEVEEAAAIIAQRPDNPREFFRQQERV
Regarding B1, the Kd (usually the equilibrium constant for the complex coming apart) stood at 170 nM.
